Source: ChEMBL document CHEMBL3396991 (Eur J Med Chem, 2015)

Sequences of proteins named here, by UniProt entry; tags and fusion partners are left off.
UniProt P41143, whole entry: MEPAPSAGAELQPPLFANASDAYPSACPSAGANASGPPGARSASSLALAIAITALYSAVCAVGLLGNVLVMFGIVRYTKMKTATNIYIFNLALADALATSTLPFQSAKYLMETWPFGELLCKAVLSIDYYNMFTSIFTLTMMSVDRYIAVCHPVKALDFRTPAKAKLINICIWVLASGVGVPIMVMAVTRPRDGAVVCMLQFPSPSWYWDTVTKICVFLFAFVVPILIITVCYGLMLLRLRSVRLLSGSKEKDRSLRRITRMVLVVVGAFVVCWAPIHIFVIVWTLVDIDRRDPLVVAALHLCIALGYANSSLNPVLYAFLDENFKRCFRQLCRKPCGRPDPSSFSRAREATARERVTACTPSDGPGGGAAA
UniProt P35372, whole entry: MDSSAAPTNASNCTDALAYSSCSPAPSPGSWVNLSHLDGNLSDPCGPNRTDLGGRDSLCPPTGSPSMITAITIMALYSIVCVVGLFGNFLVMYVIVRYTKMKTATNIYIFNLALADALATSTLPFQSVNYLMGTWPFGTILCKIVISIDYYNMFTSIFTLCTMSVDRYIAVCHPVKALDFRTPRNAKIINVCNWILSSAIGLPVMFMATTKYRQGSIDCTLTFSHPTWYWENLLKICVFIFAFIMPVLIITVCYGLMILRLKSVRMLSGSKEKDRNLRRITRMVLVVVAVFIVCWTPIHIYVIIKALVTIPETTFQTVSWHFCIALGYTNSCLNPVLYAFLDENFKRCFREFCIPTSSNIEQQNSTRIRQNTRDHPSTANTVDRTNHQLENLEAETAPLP

Key:
[1] = molecular target: Delta-type opioid receptor (Homo sapiens, UniProt P41143); assay: Displacement of [3H]DADLE from human recombinant delta opioid receptor expressed in HEK cells after 60 mins; assay type: cell-based, HEK293
[2] = molecular target: Mu-type opioid receptor (Homo sapiens, UniProt P35372); assay: Displacement of [3H]diprenorphine from human recombinant mu opioid receptor expressed in HEK cells after 60 mins; assay type: cell-based, HEK293

SMILES: CC(C)[C@@H](CN1CC[C@@](C)(c2cccc(O)c2)[C@@H](C)C1)NC(=O)[C@H]1Cc2ccc(O)cc2CN1 [JDTIC]
- Ki [1]: 36.1 nM
- Ki [2]: 4 nM
